Results reported in PubChem BioAssay AID1490 (National Center for Advancing Translational Sciences (NCATS), 2009).
Where “and” joins values, the source holds several entries; their conditions need not be identical. Equal entries are not always repeated. Only a part is listed here, and it is no random draw. Records with an inconclusive call do not appear. Calls of active or inactive are those of the source. Calls follow the shape of the dose curve; as a rule, active = well fitted inhibition curve with a large enough effect; inconclusive = small, poorly fitted or top-dose-only effect, or another doubt; inactive = no such curve, though single readings can be large or run the other way.

What follows are molecules tested against 4'-phosphopantetheinyl transferase ffp (Bacillus subtilis) (UniProt Q9F4F7) (assay: qHTS Assay for Inhibitors of Bacillus subtilis Sfp phosphopantetheinyl transferase (PPTase)). Conditions: Biochemical Sfp PPTase activity.
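Also: the enzyme is Sfp with the accession as filed and its product quenches rhodamine fluorescence; 0% = enzyme reaction without inhibitor and -100% = no enzyme wells.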

Compound | largest response in the series, negative = inhibition
CC(C)C(=O)NC(Sc1ccccc1)C(Cl)(Cl)Cl (stereo unspecified) | inactive: 37%
O=P(Nc1nccs1)(c1ccccc1)c1ccccc1 | inactive: 6.9%
CCN(CCCl)Cc1ccccc1C | inactive: -5.23%
O=[N+]([O-])c1cc([N+](=O)[O-])c(CCNc2ccccc2)c([N+](=O)[O-])c1 | inactive: -17%
Cc1ccc(NP(=O)(Oc2ccccc2)Oc2ccccc2)nc1 | inactive: 4.77%
O=C(OCCCN1CCCC1)C(O)(c1ccccc1)C1CCCCC1 (stereo unspecified) | inactive: -8.2%
O=[N+]([O-])c1cccc2n[nH]nc12 | inactive: -7.87%
CC(=O)N1C2C3N(C(C)=O)C1C1N(C(C)=O)C(C(N1C(C)=O)N3C(C)=O)N2C(C)=O | inactive: 14.2%
CCN(CC)CC(O)COC(=O)C(O)(c1ccccc1)C1CCCCC1 (stereo unspecified) | inactive: 22%
CC1CCN(C(=O)Oc2c(Cl)cc(Cl)c3cccnc23)CC1 | inactive: -10.1%
CC(=O)C1=CCCC2CCC1N2 (stereo unspecified) | inactive: -13% and inactive: 5.41%
CN(C)C(=O)OCCc1n(C)cc[n+]1C | inactive: 9.63%
CC(C)=N/N=C(\N)N[N+](=O)[O-] | inactive: -3.45%
CCN(/C(=N/P(=O)(N1CCOCC1)N1CCOCC1)N1CCOCC1)c1ccc(OC)cc1 | inactive: 27%
Nc1ccc([As](=O)(O)c2ccc(N)cc2)cc1 | inactive: 4.33%
O=C(Nc1cc([As](=O)(O)O)ccc1O)c1ccccc1 | inactive: -16.8%
O=C(O)CNc1ccc([As](=O)(O)O)cc1 | inactive: 11.7%
O=[N+]([O-])c1cccc(NC2=NCC(CBr)S2)c1 (stereo unspecified) | inactive: -12.7%

Compound | largest response in the series, negative = inhibition
O=[N+]([O-])c1ncn(CCn2ncnc2[N+](=O)[O-])n1 | inactive: 7.47%
Cc1ccc(NP(=O)(Oc2ccccc2F)Oc2ccccc2F)nc1 | inactive: 12.3%
CCOP(=O)(Nc1ccccc1)OCC | inactive: 18.8% and inactive: 3.96%
O=P(Nc1nc2ccc(Cl)cc2s1)(c1ccccc1)c1ccccc1 | inactive: 7.52%
CC(=O)Nc1ccc([As](=O)(O)O)cc1 | inactive: 8.05%
O=C(O)c1ccccc1[As](=O)(O)O | inactive: -5.84%
CCN(N=Nc1nonc1N)c1nonc1N | inactive: 11.4%
O=[N+]([O-])c1cc([N+](=O)[O-])c(CCN2CCOCC2)c([N+](=O)[O-])c1 | inactive: -18.5%
CN1CCCC(OC(=O)C(c2ccccc2)c2ccccc2)C1 (stereo unspecified) | inactive: -5.04%
Clc1ccc(Cl)c(NC2=NCC(CBr)S2)c1 (stereo unspecified) | inactive: -27.1%
CN(C)CCOC(=O)C(O)(c1ccccc1)C1CCCC1 (stereo unspecified) | inactive: -0.974%
Cc1ccc(OP(=O)(Nc2nccs2)Oc2ccc(C)cc2)cc1 | inactive: 5.36%
COc1ccccc1OP(=O)(Nc1ccc(C)cn1)Oc1ccccc1OC | inactive: 15.1%
Cc1ccc(N/C(=N/P(=O)(N2CCOCC2)N2CCOCC2)N2CCOCC2)cc1 | inactive: 24.4%
NC(=O)c1cc([N+](=O)[O-])cc([N+](=O)[O-])c1N | inactive: -0.0536%
Oc1ccccc1CNc1ccccn1 | inactive: 4.2%
Nc1cc(N)c2nonc2c1[N+](=O)[O-] | inactive: 8.38%
CC(C)CC(=O)NC(Sc1ccc(Cl)cc1)C(Cl)(Cl)Cl (stereo unspecified) | inactive: 16.3%
